Source: patent US20240316047A1, “INHIBITORS OF RNA HELICASE DHX9 AND USES THEREOF” (ACCENT THERAPEUTICS, INC., priority 2022, published 2024)
pEC50: −log10 of the molar value.

Tested on: circBRIP1 in HCT116 cells
Experiment: DHX9 circBRIP1 cellular target engagement TaqMan multiplex assay
Type: cell-based
Settings: read-out: DHX9 Cellular Target Engagement

pEC50: 6.92
Structure (SMILES): CC(C)N1CC(Oc2cnc(-c3cc(C(=O)Nc4cc(Cl)cc(NS(C)(=O)=O)c4)cn3CC(F)(F)F)nc2)C1
